Biological target: human serotonin 5-HT7 receptor (Homo sapiens, UniProt P34969)
Experiment: cAMP functional assay (LANCE Ultra TR-FRET), CHO-K1 cells
Conditions: mean of two independent experiments in duplicate

The chains behind the UniProt entries cited, without tags or fusion partners.
UniProt P34969, whole entry: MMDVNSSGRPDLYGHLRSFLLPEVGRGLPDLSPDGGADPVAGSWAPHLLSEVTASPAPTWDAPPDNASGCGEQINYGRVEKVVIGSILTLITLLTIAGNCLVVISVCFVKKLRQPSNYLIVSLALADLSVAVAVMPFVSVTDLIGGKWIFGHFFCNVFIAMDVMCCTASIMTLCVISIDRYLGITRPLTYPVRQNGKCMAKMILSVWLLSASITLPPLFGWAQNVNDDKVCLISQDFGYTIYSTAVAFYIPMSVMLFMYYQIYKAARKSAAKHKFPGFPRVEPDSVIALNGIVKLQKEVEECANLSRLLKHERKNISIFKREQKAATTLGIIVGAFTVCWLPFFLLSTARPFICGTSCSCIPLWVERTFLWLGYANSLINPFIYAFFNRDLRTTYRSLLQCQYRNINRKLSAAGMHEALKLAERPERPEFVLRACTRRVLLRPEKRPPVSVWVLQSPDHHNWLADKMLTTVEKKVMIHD

For `CC1CCN(CC[C@H]2CCCN2S(=O)(=O)c2cccc(O)c2)CC1` [SB 269970, reference compound], the “Agonist mode Emax” value was 4%.

From paper PMC4640659, “Antidepressant- and Anxiolytic-Like Effects of New Dual 5-HT1A and 5-HT7 Antagonists in Animal Models” (PLoS ONE, 2015)
